Broadly, the inhibition is the percentage by which the read-out fell short of the control.

Protein sequences, listed by entry. Tags and fused reporters are not part of them.
UniProt P70627, whole entry: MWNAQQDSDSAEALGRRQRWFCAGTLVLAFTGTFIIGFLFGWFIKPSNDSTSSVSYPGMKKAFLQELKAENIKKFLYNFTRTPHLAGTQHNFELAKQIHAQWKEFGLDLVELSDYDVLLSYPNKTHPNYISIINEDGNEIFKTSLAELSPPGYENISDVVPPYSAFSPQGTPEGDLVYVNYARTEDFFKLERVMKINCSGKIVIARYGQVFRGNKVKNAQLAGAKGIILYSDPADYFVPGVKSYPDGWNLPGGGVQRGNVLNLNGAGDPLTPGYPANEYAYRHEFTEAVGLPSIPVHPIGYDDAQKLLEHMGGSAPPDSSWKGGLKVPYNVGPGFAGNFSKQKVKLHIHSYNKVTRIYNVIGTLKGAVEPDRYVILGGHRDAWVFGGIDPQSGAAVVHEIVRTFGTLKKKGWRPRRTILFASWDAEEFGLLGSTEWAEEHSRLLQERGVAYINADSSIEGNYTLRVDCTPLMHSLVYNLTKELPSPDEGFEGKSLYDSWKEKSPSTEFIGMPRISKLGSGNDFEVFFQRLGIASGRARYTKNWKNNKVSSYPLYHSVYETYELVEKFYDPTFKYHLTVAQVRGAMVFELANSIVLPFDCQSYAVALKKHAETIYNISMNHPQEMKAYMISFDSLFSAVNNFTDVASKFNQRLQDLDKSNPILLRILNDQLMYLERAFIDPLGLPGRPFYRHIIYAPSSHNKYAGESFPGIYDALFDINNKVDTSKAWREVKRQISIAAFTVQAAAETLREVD

The source of these data is patent US7381745B2, “Ligands for metabotropic glutamate receptors and inhibitors of NAALADase” (Georgetown University, priority 1999, dated 2008).

The test addresses T1, rat GCPII (Rattus norvegicus, UniProt P70627).
T1 construct: expressed in transfected cells
Nature of the test: Inhibition of rat GCPII stably expressed in CHO cells. It is filed as biochemical. The settings on record: read-out: inhibition of expressed rat GCPII.

On to `O=C(O)CC[C@@H](NC(=O)N[C@H](CCC(=O)O)C(=O)O)C(=O)O` [FN13], for which the inhibition at 100 µM is 67%.
